The results in this text go back to patent publication US7125671B2, “Nucleic acid amplification with terminal-phosphate labeled nucleotides” (GE Healthcare Bio-Sciences Corp., priority 2003, dated 2006).

A short description of this data set: Non-enzymatic hydrolysis of dT4P-DDAO in the presence of MnCl2, effect of other salts (FIG. 5). The following applies: 10 or 25 mM salt; 0.5 mM MnCl2; 25 mM Hepes pH 8.1; 95° C. for 60 minutes. The method, then:
Twenty μl of 25 mM Hepes, pH 8.1, containing 0.5 mM MnCl2, 1 μm dT4P-DDAO and 10 or 25 mM inorganic or organic salt (see FIG. 5) was heated at 95° C. for 60 minutes. 4 μl of each sample was treated with BAP as described above and read on Tecan ultra plate reader. An unheated sample with MnCl2 (water lane) and a heated sample without Hepes and MnCl2 were used as controls. Fluorescence counts were converted into % degradation as described above.

Take sodium vanadate: the “stabilization of dT4P-DDAO (% degradation)” value is listed as “stabilize the nucleotide”.
